Apparent affinities of Ab-14 variants for a coronavirus HR2 peptide

Antigen: PDVDLGDISGINAS, a 14-residue peptide of the SARS-CoV-2 spike HR2 region.

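The starting antibody came from a phage panning campaign against this peptide. Library AAYL49 holds single substitutions and randomly drawn double and triple substitutions in the CDRs. Affinity was read by AlphaSeq, a pooled yeast mating assay with surface-displayed partners. The frequency of each diploid, read from paired DNA barcodes, reflects how well the two displayed proteins bind. A regression on co-assayed BCL2-family reference pairs converts the normalised counts of each replicate to an apparent Kd. The assay was run in three technical replicates.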

Ab-14 is the parent antibody, in scFv form: VH, then three GGGGS repeats, then VL. The light chain is unchanged in all variants.
VH: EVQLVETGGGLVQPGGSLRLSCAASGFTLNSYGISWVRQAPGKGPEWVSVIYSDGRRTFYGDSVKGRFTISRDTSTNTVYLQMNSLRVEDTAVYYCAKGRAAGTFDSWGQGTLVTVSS
VL: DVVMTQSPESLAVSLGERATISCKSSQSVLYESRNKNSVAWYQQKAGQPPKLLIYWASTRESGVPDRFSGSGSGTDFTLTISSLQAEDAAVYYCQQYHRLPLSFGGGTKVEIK

Variants are written as CDR1, CDR2 and CDR3 of the heavy chain (limits as in the source). Parent: GFTLNSYGIS, VIYSDGRRTFYGDSVK, GRAAGTFDS.
Kd is apparent (estimated from mating counts) and averaged on the log scale over replicates with a signal. Smaller is tighter.
"no signal" marks a missing value. The strain was present, yet no cells mated with the target were sequenced in any replicate, which points to weak or no binding.
As a blank, each scFv also met three strains without target: over library AAYL49, 15% of these pairings were detected, typically at 11 µM and seldom below 680 nM.
In this assay the parent's reference entry averaged 4.4 nM; its copy inside this library read 13 µM (one replicate of three).

apparent Kd,replicates with signal,CDR-H1,CDR-H2,CDR-H3
no signal,0/3,PFTLNSYGIS,VIYSDGWRTFYGDSVK,LRAAGTFDS
no signal,0/3,GFTLNSYGSS,VIYRDGRRTFYGDSVK,GRAAGTFDS
7.9 µM,1/3,GFTLNSYGIS,VCYSDGRRTFYGDSVK,GGAEGTFDS
no signal,0/3,GFTLNSYGIS,VIYSDDRRTFYGDSVK,GRAAGTFEV
no signal,0/3,GFTLNSYGIS,MIYSDQRRTFYGDSVK,GHAAGTFDS
no signal,0/3,GFTLNSYGIS,VIYSDGRRTFYGSGVK,GRAAGTWDS
420 µM,1/3,GFTQNSGGIS,VIYSDGRRTFYGDSKK,GRAAGTFDS
no signal,0/3,GFTLNSYGIC,VIYSDGQRTFYGDSVK,GRAAGTFDS
820 µM,1/3,GFTLNSYGIS,VIYQDGRRPFYQDSVK,GRAAGTFDS
no signal,0/3,GFTLASMGIS,VSYSDGRRTFYGDSVK,GRAAGTFDS
2.7 µM,1/3,GFTLNSYGIS,VIFNDGRRTFYGDSVK,GRAAGTKDS
750 nM,1/3,GFTLNSYGII,VIYSDGRRTTYGDSVK,GEAAGTFDS
1.4 µM,1/3,GFTLNSYGMS,VIYSDGRRTFEGDSVK,GRAAGTFDS
no signal,0/3,GFTLNNYGIS,VCYSDGRKTFYGDSVK,GRAAGTFDS
no signal,0/3,GFTLNSYGIS,VIYSDGVRTFYGDSVK,GRGIGTFDS
13 µM,1/3,GFTLNSYFIS,VIYSDGRLTFYGDSVQ,GRAAGTFDS
660 nM,1/3,GFTLNSYTIS,VIYSDGRRTFYGDSVK,GRIAGTFDS
1.1 µM,3/3,GFTFNSYGIS,VIYSDGRRTFYGDSVK,GRAAGTFKS
no signal,0/3,GFTLNSYGIS,VIYSDLRETFYGDSVK,GRAAGGFDS
59 µM,3/3,GFTLNSYGTS,VIYTDGRDTFYGDSVK,GRAAGTFDS
no signal,0/3,GFTLNSCGIS,VIYSDGRRTFYGDSVK,GRAAGTHLS
770 nM,1/3,GFWLNSYGIS,VIYSDGRRTNYGDSVK,GRAAGTFDE
13 µM,2/3,GFTLNSYGIS,VIYSDGRRTFYSDSVK,GRGRGTFDS
no signal,0/3,GITLNSYGIS,VIYSDGRRTFYGDSVK,GRWAGTFWS
51 µM,2/3,GFTLNSYSIS,VIYSDGLRTFYGDSVK,KRAAGTFDS
940 nM,1/3,GFTSNVYGIS,VIYSDGRRTFYGDSVK,GRAAGTFDS
no signal,0/3,GFTLNSYGIS,VIYSDGRWTFYGDSVK,GRAAGTFDI
no signal,0/3,GFTLNSPGIS,VIYSDCRRTFYGDSVK,GRAAGAFDS
3.8 µM,1/3,GFTLNSYGIS,VIYSDGRRTFYGMSVK,GRRAGTFDS
58 µM,2/3,GFTLNSYGIS,VIYSDGRRTFYGDLVK,YRARGTFDS
41 µM,1/3,GFTLNSYGIS,PCYSDGQRTFYGDSVK,GRAAGTFDS
71 µM,1/3,GFTLNSYGIS,VIYSDGCRTEYGDSVK,GVAAGTFDS
6.9 µM,1/3,GFTWNSYGIS,VIASDGRRTFYGDSVK,GRASGTFDS
13 µM,1/3,GFTLNSAGIS,VIYSDGRGTFYGDSVK,GRAAGTNDS
no signal,0/3,VFTLNSYEIS,VSYSDGRRTFYGDSVK,GRAAGTFDS
130 µM,2/3,GFTLNSYGIS,VISSDGRRTFYGDSVK,SRAAGTFSS
no signal,0/3,GFTLNSYGIS,VIYSEGRRTFYGDSVK,GRAAMTFDD
no signal,0/3,GFTLNSYGIS,VIYSDGRRGFMGDSVK,QRAAGTFDS
no signal,0/3,RFTLNSYGIS,VIYYDGRRTFYGDSMK,GRAAGTFDS
2.2 µM,2/3,GFCLNSYGIS,VILSDLRRTFYGDSVK,GRAAGTFDS
110 µM,1/3,GFTLNSYGTS,VIYSDDRRTFYGDSVK,GHAAGTFDS
4.8 µM,1/3,GFTLNSYGIS,VIYIDGRRHFYGDSVK,QRAAGTFDS
5.5 µM,1/3,GFTLNSQGIS,VPYSDGRRTSYGDSVK,GRAAGTFDS
30 µM,1/3,GFTLNSYGIS,VIYSDGRRCFYGDSVK,QRAQGTFDS
33 µM,3/3,GFTLCSYGAS,VIYSDGRRTFYGDSVK,GRAAGTFES
no signal,0/3,GFHLNSYGIS,VIYSDGRRTDIGDSVK,GRAAGTFDS
6.7 µM,1/3,GFTLNSYGIS,VIYPDGRRTFTGDSVK,GRAAGQFDS
no signal,0/3,GFTLNSYSIS,VIYSKGRRTFYGDSVK,GREAGTFDS
no signal,0/3,GFTLNSKGIS,VIYSDGRRTFYVDSVK,GRAAGPFDS
no signal,0/3,GRTLNSYGIS,VIYSDGKRTFYGDSVI,GRAAGTFDS
48 µM,2/3,GFTLNSYGIS,VIYSMGRRTFYSDSVK,GRAAGTFDS
1.6 µM,1/3,GFTLNSYGIS,VPDSDNRRTFYGDSVK,GRAAGTFDS
20 µM,3/3,GFTLNDSGIS,VIYSDGRRTFIGDSVK,GRAAGTFDS
no signal,0/3,GFTLNSYGIS,VIYSDGRRTFYGDMFK,GRAAGTFTS
no signal,0/3,GFTLNSYGIS,VIYSDCRRTFNGDSVK,GRAAGTFDS
no signal,0/3,GFLHNSYGIS,VIYSDGRRHFYGDSVK,GRAAGTFDS
no signal,0/3,GFTLNAYPIS,VIYSDGRRTFYGDSVK,GRAAGTFFS
no signal,0/3,GFTLNSYGIS,VIYSDRRRTFYGDSWK,GRAAGKFDS
7.5 µM,3/3,GFTLNSYSIS,VIYSDIRRTFIGDSVK,GRAAGTFDS
390 nM,3/3,GTTLNSYGIS,VIYSDGRRTFYGDSVK,MRAAGTFDS
13 µM,1/3,GFTLNSYGIS,VIYSDGRRTFYGIDVF,GRAAGTFDS
no signal,0/3,GFTPNSYGIS,VIYSMGRRTFYGSSVK,GRAAGTFDS
no signal,0/3,GFTLNSYGIS,VNYSDGRRTMYGDSVK,GRAAGTFHS
630 nM,1/3,GRTLNSYGIS,VIYSDGRRTFYGDSVK,GRFAGTFES
24 µM,2/3,GFDMNSYGIS,VIYSDGRRTFYGDSVK,GRAAGTFDP
no signal,0/3,GFTLNSYGIH,VIHSDGRRTFYGDSVT,GRAAGTFDS
no signal,0/3,GFTLNSLGIS,VIYSPGRRTFYMDSVK,GRAAGTFDS
960 nM,1/3,GFTLNVYCIS,VIYIDGRRTFYGDSVK,GRAAGTFDS
19 nM,3/3,GFTLNSYGIS,VIYSDGRRVFYGDSVK,TRAAGTFDS
no signal,0/3,GFTLNSYGIS,VIYSVGRREFYGDSVK,GRHAGTFDS
no signal,0/3,GFKLSSYGIS,VSYSDGRRTFYGDSVK,GRAAGTFDS
14 µM,2/3,GFTLNSYGIS,VIYSAGRRTFYGDSVK,GQAAGFFDS
9.5 µM,1/3,GFTLNSYGIS,VIYSDGRRTFYGKSNK,GRAAGTADS
no signal,0/3,GFTLNSRGIS,VIYSDQRRTFYGDSVK,GRAHGTFDS
770 nM,1/3,GFTLNSYGYS,VIYSDGRRTFYGDSDK,GRAAGIFDS
no signal,0/3,GFTLNSYGIS,VIYSDGRRTFYMDSVV,GPAAGTFDS

The last 11 entries again:

CDR-H1	CDR-H2	CDR-H3	apparent Kd	replicates with signal
GFTLNSYGIH	VIHSDGRRTFYGDSVT	GRAAGTFDS	no signal	0/3
GFTLNSLGIS	VIYSPGRRTFYMDSVK	GRAAGTFDS	no signal	0/3
GFTLNVYCIS	VIYIDGRRTFYGDSVK	GRAAGTFDS	960 nM	1/3
GFTLNSYGIS	VIYSDGRRVFYGDSVK	TRAAGTFDS	19 nM	3/3
GFTLNSYGIS	VIYSVGRREFYGDSVK	GRHAGTFDS	no signal	0/3
GFKLSSYGIS	VSYSDGRRTFYGDSVK	GRAAGTFDS	no signal	0/3
GFTLNSYGIS	VIYSAGRRTFYGDSVK	GQAAGFFDS	14 µM	2/3
GFTLNSYGIS	VIYSDGRRTFYGKSNK	GRAAGTADS	9.5 µM	1/3
GFTLNSRGIS	VIYSDQRRTFYGDSVK	GRAHGTFDS	no signal	0/3
GFTLNSYGYS	VIYSDGRRTFYGDSDK	GRAAGIFDS	770 nM	1/3
GFTLNSYGIS	VIYSDGRRTFYMDSVV	GPAAGTFDS	no signal	0/3

Source: Engelhart et al. 2022 (doi:10.1038/s41597-022-01779-4), MIT Lincoln Laboratory and A-Alpha Bio; data file from the FLAb repository.